In the supplement of paper PMC13380429:

Tests used:
Settings in all cases: 72 h
Caco-2 [1] = assay: cell viability relative to DMSO; higher = less toxic
Calu-3 [2] = assay: as above
HepG2 [3] = assay: as above
U2OS [4] = assay: as above
Vero E6 [5] = assay: as above
Caco-2 [6] = assay: relative viability EC50 (midpoint between 100% and the lowest measured viability); higher = less toxic
Calu-3 [7] = assay: as above
HepG2 [8] = assay: as above
U2OS [9] = assay: as above
Vero E6 [10] = assay: as above
Caco-2 [11] = assay: drug sensitivity score (DSS) for viability; higher = more toxic; extreme values may be limits of the assay
Calu-3 [12] = assay: as above
HepG2 [13] = assay: as above
U2OS [14] = assay: as above
Vero E6 [15] = assay: as above

CC[C@H](C)[C@H](NC(=O)[C@H](CCC(=O)O)NC(=O)[C@H](CCC(=O)O)NC(=O)[C@H](Cc1ccccc1)NC(=O)[C@H](CC(=O)O)NC(=O)CNC(=O)[C@H](CC(N)=O)NC(=O)CNC(=O)CNC(=O)CNC(=O)CNC(=O)[C@@H]1CCCN1C(=O)[C@H](CCCNC(=N)N)NC(=O)[C@@H]1CCCN1C(=O)[C@H](N)Cc1ccccc1)C(=O)N1CCC[C@H]1C(=O)N[C@@H](CCC(=O)O)C(=O)N[C@@H](CCC(=O)O)C(=O)N[C@@H](Cc1ccc(O)cc1)C(=O)N[C@@H](CC(C)C)C(=O)O [bivalirudin]
cell viability [%]
Settings	Caco-2 [1]	Calu-3 [2]	HepG2 [3]	U2OS [4]	Vero E6 [5]
1 nM	93.9	98.9	104	97.7	97.9
10 nM	108	92.2	95.2	103	93.6
100 nM	106	103	97.5	96.4	100
1000 nM	102	97.2	97.3	98.5	92.7
10000 nM	97.6	97.3	92.2	93.2	101

Settings	drug sensitivity score	relative viability EC50 [µM]
Caco-2 [6]	–	> 10
Caco-2 [11]	0	–
Calu-3 [7]	–	> 10
Calu-3 [12]	0	–
HepG2 [8]	–	> 10
HepG2 [13]	0	–
U2OS [9]	–	> 10
U2OS [14]	0	–
Vero E6 [10]	–	> 10
Vero E6 [15]	0	–
